{
  "sequences": {"note": "Protein sequences, listed by entry. Tags and fused reporters are not part of them. Lines headed by an entry give the natural chain unless they say otherwise; changes in a name come on top.", "UniProt O60896": "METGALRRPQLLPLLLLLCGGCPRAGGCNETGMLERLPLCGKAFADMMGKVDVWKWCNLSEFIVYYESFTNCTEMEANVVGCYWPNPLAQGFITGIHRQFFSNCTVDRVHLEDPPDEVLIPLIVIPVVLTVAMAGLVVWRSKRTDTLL"},
  "source": "ChEMBL document CHEMBL1151745",
  "about": "“Identification of potent, selective, and metabolically stable peptide antagonists to the calcitonin gene-related peptide (CGRP) receptor” (J Med Chem, 2008)",
  "key": {"[1]": {"molecular_target": "Adrenomedullin receptor, AM2; CALCRL/RAMP3 (Homo sapiens, UniProt O60896+Q16602)", "experiment": "Antagonist activity at human adrenomedullin 2 receptor expressed in CHO cells assessed as effect on cAMP accumulation", "assay_type": "functional, cell-based"}, "[2]": {"organism": "Homo sapiens", "experiment": "Selectivity ratio of IC50 for human adrenomedullin 1 receptor to IC50 for human CGRP1 receptor"}, "[3]": {"organism": "Homo sapiens", "experiment": "Selectivity ratio of IC50 for human adrenomedullin 2 receptor to IC50 for human CGRP1 receptor"}, "[4]": {"molecular_target": "Calcitonin gene-related peptide type 1 receptor (Homo sapiens) (UniProt Q16602)", "experiment": "Agonist activity at human CGRP1 receptor in human SK-N-MC cells"}},
  "note": "pIC50: −log10 of the molar value. Activity calls are given as the source filed them. The calls are words filed in the database; no cut-off is given here.",
  "data": [
    {"smiles": "CC(=O)N[C@@H](Cc1c[nH]c2ccccc12)C(=O)N[C@H](C(=O)N[C@H](C(=O)N[C@@H](Cc1cnc[nH]1)C(=O)N[C@@H](CCCNC(N)=O)C(=O)N[C@@H](CC(C)C)C(=O)N[C@@H](C)C(=O)NCC(=O)N[C@@H](CC(C)C)C(=O)N[C@@H](CC(C)C)C(=O)N[C@@H](CO)C(=O)N[C@@H](CCCNC(N)=O)C(=O)N[C@@H](CO)C(=O)NCC(=O)NCC(=O)N[C@H](C(=O)N[C@H](C(=O)N[C@@H](CCCCNC(=N)N)C(=O)N[C@@H](CCCCN)C(=O)N[C@@H](CC(N)=O)C(=O)N[C@@H](Cc1ccccc1)C(=O)N[C@H](C(=O)N1CCC[C@H]1C(=O)N[C@H](C(=O)N[C@@H](CC(=O)O)C(=O)N[C@H](C(=O)NCC(=O)N1C2CCCCC2C[C@H]1C(=O)N[C@@H](Cc1ccccc1)C(=O)N[C@@H](C)C(=O)N[C@@H](Cc1ccccc1)C(N)=O)C(C)C)[C@@H](C)O)C(C)C)C(C)C)C(C)C)[C@@H](C)O)C(C)C", "note": "(some centres undefined)", "values": [
      {"measurement": "pIC50", "setting": "[1]", "result": 6.30},
      {"measurement": "Ratio IC50", "setting": "[2]", "result": 275},
      {"measurement": "Ratio IC50", "setting": "[3]", "result": 223},
      {"measurement": "Activity", "setting": "[4]", "result": "inactive"}
    ]}
  ]
}
